Laboratory results: patent US20230405140A1, “ANTI-CD56 ANTIBODY-DRUG CONJUGATES AND THEIR USE IN THERAPY” (MCSAF INSIDE ONCOLOGY, priority 2020, published 2023)

Experiments:
[1] = tested on: MCC lines (WaGa, PeTa, MS-1, MKL-2); assay: XTT cytotoxicity test on MCC cell lines; details: at the lowest effective concentrations tested, in words
Procedure: (§1) In order to evaluate cell viability, a cytotoxicity test using XTT was carried out. The cells were deposited in a 96-well plate (50 000 cells/well) in 7 replicates. […] The culture medium acted as a negative control. After 4 days of exposure to the drug, 25 μL of reagent XTT was added per well and the absorption was measured at 450 nm after 4 hours of incubation at 37° C. The absorption at 620 nm was used as a reference.

[2] = tested on: H69 small cell lung carcinoma cell line; assay: XTT cytotoxicity test on H69 line; details: at the lowest effective concentrations tested, in words
Procedure: as §1

WaGa MCC xenograft = assay: Xenograft model of MCC cell line on NOD/SCID mouse (Example 5); assay type: in vivo, NOD/SCID mice; details: triple dose of 10 mg/kg, intravenous; sacrifice 30 days after inclusion
WaGa = assay: Immunocytochemical fixation of antibody on tumor cells (peroxidase); assay type: binding; set-up: key: +: presence of a fixation of the antibody to the target cell revealed by peroxidase; −: absence of fixation; details: m906 650 ng/mL, trastuzumab 40 ng/mL; peroxidase secondary antibody
MS-1 = assay: as above; assay type: binding; set-up: key: +: presence of a fixation of the antibody to the target cell revealed by peroxidase; −: absence of fixation; details: m906 650 ng/mL, trastuzumab 40 ng/mL; peroxidase secondary antibody
PeTa = assay: as above; assay type: binding; set-up: key: +: presence of a fixation of the antibody to the target cell revealed by peroxidase; −: absence of fixation; details: m906 650 ng/mL, trastuzumab 40 ng/mL; peroxidase secondary antibody
MKL-2 = assay: as above; assay type: binding; set-up: key: +: presence of a fixation of the antibody to the target cell revealed by peroxidase; −: absence of fixation; details: m906 650 ng/mL, trastuzumab 40 ng/mL; peroxidase secondary antibody
SK-BR-3 = assay: as above; assay type: binding; set-up: key: +: presence of a fixation of the antibody to the target cell revealed by peroxidase; −: absence of fixation; details: m906 650 ng/mL, trastuzumab 40 ng/mL; CD56-negative HER2-positive control line

Substance	Cytotoxic effect [1]	Cytotoxic effect [2]	mean weight of the tumors at end of study (WaGa MCC xenograft)	Binding (fixation) to cell line WaGa (WaGa)	Binding (fixation) to cell line MS-1 (MS-1)	Binding (fixation) to cell line PeTa (PeTa)	Binding (fixation) to cell line MKL-2 (MKL-2)	Binding (fixation) to cell line SKBR3 (SK-BR-3)
MF-TTZ-MMAE: ADC Trastuzumab coupled to MMAE (ADC control) [reference compound]	neither the antibody m906 (i.e. non coupled to MMAE), nor the ADC MF-TTZ-MMAE (ADC control) has a cytotoxic effect	neither the antibody m906 (i.e. non coupled to MMAE), nor the ADC MF-TTZ-MMAE (ADC control) has a cytotoxic effect	1.78 g					
Trastuzumab: anti-HER2 antibody control (Herceptin 150 mg Roche) [reference compound]				−	−	−	−	+
